How the values were obtained:
[1] = tested on: DnaK (hsp70) and lbpB (hsp17) genes; details: 50 mM BA, at 42° C., cells grown at 30° C.
[2] = tested on: macrophage cell line (J774); details: 50 mM BA, MΦ/S.th. 1:1, up to 60 min

OCc1ccccc1 [BA, benzyl alcohol]
level of accumulation of DnaK [1]: significant decrease | capacity of Salmonella to infect macrophages [2]: reduces its capacity to infect macrophages only temporarily

From patent publication US20050158277A1 (priority 2001, published 2005)
